Screens (PubChem BioAssay)
An excerpt weighted towards active compounds, which were near 16% of everything screened.
DT40 TDP1 no CPT – qHTS for Inhibitors of human tyrosyl-DNA phosphodiesterase 1 (TDP1): qHTS in cells in absence of CPT. 15% of 420,000 active. AID 686978, 2013. DT40 Tdp1-/- hTDP1 cells, no CPT, ATP luminescence, 48 h. Potency, µM (series often up to 46.2 µM), for inactives: top-dose activity change, negative = growth inhibition, actives largely listed as inhibitors; note: potency is the fitted concentration of half-maximal effect; % is set by controls: 0 for no effect and ±100 for the full control effect; nearly all actives have a fitted effect of over 55% in size
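Growth of hTDP1-complemented DT40 Tdp1-knockout cells is measured by ATP luminescence after at least 48 hr compound exposure at 37 °C, with DMSO substituting for the 20 nM CPT used in the parallel screen.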
miR-21 reporter – miR-21 reporter, rising signal. HeLa miR-21 FLuc reporter, luciferase, 48 h. Potency, µM (titrated, usually from 38.3 µM), without a hit: at the top dose reporter change, positive = more light. 340,000 tested, under 10 active. AID 2288; active = well fitted rising curve with a large enough effect; inconclusive = small, poorly fitted or top-dose-only effect; inactive = no such curve, though single readings can be large or run the other way;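 also: % of control where 0% means no effect; miR-21 action dims this reporter so a rising signal means less miR-21 action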
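Using DMEM plus 10% FBS, HeLa miR-21-FLuc cells are incubated with test compounds (final up to about 40uM) for 48 hours; firefly luciferase signal is then imaged following reagent-mediated lysis.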
uPA surface inh – cell surface uPA generation inhibition | cell surface uPA generation assay, qHTS | Potency, µM (top dose mostly 38.3 µM), without a hit: top-dose activity change, negative = inhibition, usual class: inhibitors | 0.31% of 330,000 active | AID 540303; active = well fitted inhibition curve with a large enough effect; inconclusive = small, poorly fitted or top-dose-only effect; inactive = no such curve, though single readings can be large or run the other way; tested in mouse RAW 264.7 cells; note: potency is the fitted concentration of half-maximal effect; % is set by controls: 0 for no effect and ±100 for the full control effect; nearly all actives have a fitted effect of over 55% in size
TDP1 block – inhibitors of human tyrosyl-DNA phosphodiesterase TDP1; recombinant TDP1, AlphaScreen DNA substrate cleavage; Q9NUW8; 0.28% of 350,000 active; Potency, µM (doses to about 130 µM), inactives show at the highest dose activity change, negative = inhibition, actives largely listed as inhibitors; note: potency is the fitted concentration of half-maximal effect; % is set by controls: 0 for no effect and ±100 for the full control effect; nearly all actives have a fitted effect of over 40% in size
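E. coli-derived human Tdp1, 1 nM final. Cpd preinc 15 min RT; substrate 15 nM final, 5 min RT; AS bead mix 10 ug/ml final, 10 min RT. Signal loss = tyrosine-FITC cleavage. No-enzyme wells = max signal.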
TDP1 cell CPT – growth inhibition of DT40 Tdp1-/-;hTDP1 cells with camptothecin (screen for TDP1 inhibitors) | chicken DT40 Tdp1-/-;hTDP1 cells + 20 nM CPT, ATP luminescence, 48 h | Potency, µM (doses to about 46.2 µM), without a hit: top-dose activity change, negative = growth inhibition, most hits filed as inhibitors | 12% of 420,000 active | AID 686979; note: potency is the fitted concentration of half-maximal effect; % is set by controls: 0 for no effect and ±100 for the full control effect; nearly all actives have a fitted effect of over 55% in size
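Cell growth measured by CellTiter-Glo luminescence after a minimum 48 h, 37 C compound exposure with 20 nM CPT in Tdp1-knockout DT40 cells stably expressing hTDP1, seeded 400/well; qHTS titration format.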
The depositor's hits bear a star. Unless noted, calls come from the whole dose curve; as a rule, active = well fitted curve in the direction sought with a large enough effect; inconclusive = small, poorly fitted or top-dose-only effect, or another doubt; inactive = no such curve, though single readings can be large; an effect the other way counts as inactive or inconclusive.

Screening O=c1cc(CN2CCN(Cc3ccccc3)CC2)c2cc3c(cc2o1)CCC3 returned DT40 TDP1 no CPT 18µM*, miR-21 reporter -5%, uPA surface inh 11% and TDP1 cell CPT inconclusive.
Screening COc1ccc(CCn2c(C)cc(C(=O)CN3C(=O)C(=O)N(Cc4ccco4)C3=O)c2C)cc1 returned DT40 TDP1 no CPT 9.2µM*, uPA surface inh inconclusive, TDP1 block 4% and TDP1 cell CPT 13µM*.
`Cc1cc(C(=O)CN2C(=O)C(=O)N(C3CCCC3)C2=O)c(C)n1CCc1ccccc1` gave DT40 TDP1 no CPT inconclusive, uPA surface inh 6%, TDP1 block 11% and TDP1 cell CPT inconclusive.
`Cc1cc(C(=O)CN2C(=O)C(=O)N(C3CCCC3)C2=O)c(C)n1CCc1ccc(F)cc1` gave DT40 TDP1 no CPT inconclusive, uPA surface inh 8%, TDP1 block 1% and TDP1 cell CPT 18µM*.
`COc1cc2[nH]c(=S)n(CCCN3CCOCC3)c(=O)c2cc1OC` gave DT40 TDP1 no CPT -6%, miR-21 reporter 0%, uPA surface inh -2%, TDP1 block 9% and TDP1 cell CPT -7%.
C=C(c1ccc2ccccc2n1)c1cccs1 was read as DT40 TDP1 no CPT 14µM* and TDP1 cell CPT 11µM*.
`C=CCN1CCN(C(c2ccccc2)c2nnnn2CCC(C)C)CC1` (stereo not given) gave DT40 TDP1 no CPT 6.5µM*, miR-21 reporter 0%, uPA surface inh -2%, TDP1 block 12% and TDP1 cell CPT 6.5µM*.
`CCCCn1nnnc1C(c1ccccc1)N1CCN(C/C=C/c2ccccc2)CC1` (stereo not given) gave DT40 TDP1 no CPT 16µM* and TDP1 cell CPT inconclusive.
For CCCCn1nnnc1C(c1cccc2ccccc12)N1CCN(C/C=C/c2ccccc2)CC1 (stereo not given) the results were DT40 TDP1 no CPT 21µM* and TDP1 cell CPT inconclusive.
`CN1CCN(C(c2cccc(C(F)(F)F)c2)c2nnnn2Cc2ccccc2)CC1` (stereo not given) gave DT40 TDP1 no CPT inconclusive, miR-21 reporter -12%, uPA surface inh -3%, TDP1 block 5% and TDP1 cell CPT -25%.
Screening Cc1cccc2cc(C(c3nnnn3Cc3ccccc3)N3CCN(C)CC3)c(=O)[nH]c12 (stereo not given) returned DT40 TDP1 no CPT 8%, miR-21 reporter 0%, TDP1 block 4% and TDP1 cell CPT 5%.
`CCCCn1nnnc1C(c1ccccc1)N1CCN(c2ncc(C(F)(F)F)cc2Cl)CC1` (stereo not given) gave DT40 TDP1 no CPT 18µM* and TDP1 cell CPT inconclusive.
For CCCCn1nnnc1C(c1ccccc1)N1CCN(C)CC1 (stereo not given) the results were DT40 TDP1 no CPT -14% and TDP1 cell CPT 2%.
For CCCCn1nnnc1C(c1ccnc2ccccc12)N1CCN(C/C=C/c2ccccc2)CC1 (stereo not given) the results were DT40 TDP1 no CPT 21µM* and TDP1 cell CPT 21µM*.
c1ccc2c(C(c3nnnn3-c3ccc4c(c3)OCCO4)N3CCOCC3)ccnc2c1 (stereo not given) was read as DT40 TDP1 no CPT -2% and TDP1 cell CPT 3%.
Screening COc1cc(C#Cc2c(-c3cncn3C)n(C)c3ccc(-c4ccc5[nH]ccc5c4)cc23)cc(OC)c1 returned DT40 TDP1 no CPT inconclusive, uPA surface inh -8%, TDP1 block 2% and TDP1 cell CPT inconclusive.
Screening COc1cc(C#Cc2c(-c3cncn3C)n(C)c3ccc(-c4cc(OC)c(OC)c(OC)c4)cc23)cc(OC)c1 returned DT40 TDP1 no CPT 16µM*, uPA surface inh inconclusive, TDP1 block 5% and TDP1 cell CPT 21µM*.
Screening COc1cc(C#Cc2c(-c3cncn3C)n(C)c3ccc(-c4ccc(OC)nc4)cc23)cc(OC)c1 returned DT40 TDP1 no CPT inconclusive, uPA surface inh 8%, TDP1 block 5% and TDP1 cell CPT 16µM*.

Quoted at random: 2 compounds from above
Screening Cc1cccc2cc(C(c3nnnn3Cc3ccccc3)N3CCN(C)CC3)c(=O)[nH]c12 (stereo not given) returned DT40 TDP1 no CPT 8%, miR-21 reporter 0%, TDP1 block 4% and TDP1 cell CPT 5%.
C=C(c1ccc2ccccc2n1)c1cccs1 was read as DT40 TDP1 no CPT 14µM* and TDP1 cell CPT 11µM*.
